Assay results reported in ChEMBL document CHEMBL5385856, “Novel 1,4,5,6-tetrahydrocyclopenta[d]imidazole-5-carboxamide-based JNK3 inhibitors: Design, synthesis, molecular docking, and therapeutic potential in neurodegenerative diseases” (Eur J Med Chem, 2023).

Assays:
[1] = Selectivity ratio of IC50 for inhibition of JNK1 (unknown origin) to IC50 for inhibition of JNK3 (unknown origin)
[2] = Selectivity ratio of IC50 for inhibition of GSK3beta (unknown origin) to IC50 for inhibition of JNK3 (unknown origin)
[3] = Selectivity ratio of IC50 for inhibition of p38alpha (unknown origin) to IC50 for inhibition of JNK3 (unknown origin)

Row | SMILES | Ratio IC50 [1] | Ratio IC50 [2] | Ratio IC50 [3]
1 | CCOC(=O)C1Cc2nc(-c3ccc(Cl)c(Cl)c3)n(-c3ccnc(N[C@@H]4CCCN(C(=O)C5CC5)C4)n3)c2C1 (stereo not given in full) | 100 |  | 
2 | CCOC(=O)C1Cc2nc(-c3ccc4ccccc4c3)n(-c3ccnc(N[C@@H]4CCCN(C(=O)C5CC5)C4)n3)c2C1 (stereo not given in full) | 50 |  | 
3 | NC(=O)C1Cc2nc(-c3ccc(Cl)c(Cl)c3)n(-c3ccnc(N[C@@H]4CCCN(C(=O)C5CC5)C4)n3)c2C1 (stereo not given in full) | > 100 | > 100 | > 100
4 | NC(=O)C1Cc2nc(-c3ccc(Cl)c(Cl)c3)n(-c3ccnc(N[C@H]4CCCN(C(=O)C5CC5)C4)n3)c2C1 (stereo not given in full) | 200 | 10000 | 600
5 | CCOC(=O)C1Cc2nc(-c3ccc4ccccc4c3)n(-c3ccnc(N[C@H]4CCCN(C(=O)C5CC5)C4)n3)c2C1 (stereo not given in full) | 50 |  | 
6 | CCOC(=O)C1Cc2nc(-c3ccc(Cl)c(Cl)c3)n(-c3ccnc(N[C@H]4CCCN(C(=O)C5CC5)C4)n3)c2C1 (stereo not given in full) | 100 |  | 
